Laboratory results as given in patent US7786308B2 (priority 2005, dated 2010).
This is a selection: effects in other tests are not listed, and their absence says nothing.

Protein sequences, listed by entry. Tags and fused reporters are not part of them.
UniProt P11229, whole entry: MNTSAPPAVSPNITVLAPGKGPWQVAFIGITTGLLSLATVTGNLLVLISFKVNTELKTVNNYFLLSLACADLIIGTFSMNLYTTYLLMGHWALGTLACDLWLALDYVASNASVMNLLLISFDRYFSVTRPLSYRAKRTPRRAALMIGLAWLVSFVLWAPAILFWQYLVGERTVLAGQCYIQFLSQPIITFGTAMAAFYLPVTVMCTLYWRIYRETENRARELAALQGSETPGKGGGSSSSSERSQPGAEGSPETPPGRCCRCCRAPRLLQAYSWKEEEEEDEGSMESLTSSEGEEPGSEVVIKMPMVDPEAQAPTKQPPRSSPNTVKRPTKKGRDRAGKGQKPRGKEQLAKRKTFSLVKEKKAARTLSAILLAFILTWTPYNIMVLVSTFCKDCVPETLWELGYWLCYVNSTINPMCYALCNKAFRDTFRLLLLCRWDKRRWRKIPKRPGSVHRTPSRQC
UniProt P08172, whole entry: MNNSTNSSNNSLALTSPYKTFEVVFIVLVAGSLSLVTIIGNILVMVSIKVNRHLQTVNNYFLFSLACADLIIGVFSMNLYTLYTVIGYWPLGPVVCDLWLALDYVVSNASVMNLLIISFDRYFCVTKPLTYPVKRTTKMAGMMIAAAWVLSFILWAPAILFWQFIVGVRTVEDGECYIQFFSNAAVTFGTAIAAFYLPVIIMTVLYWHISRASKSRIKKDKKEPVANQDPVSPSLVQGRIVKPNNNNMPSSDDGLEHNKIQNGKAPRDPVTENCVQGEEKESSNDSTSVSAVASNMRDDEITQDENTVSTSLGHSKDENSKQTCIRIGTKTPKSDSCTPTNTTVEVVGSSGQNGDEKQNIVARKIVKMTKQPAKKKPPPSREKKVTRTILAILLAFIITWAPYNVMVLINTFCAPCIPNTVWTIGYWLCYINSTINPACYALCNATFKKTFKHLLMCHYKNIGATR
UniProt P20309, whole entry: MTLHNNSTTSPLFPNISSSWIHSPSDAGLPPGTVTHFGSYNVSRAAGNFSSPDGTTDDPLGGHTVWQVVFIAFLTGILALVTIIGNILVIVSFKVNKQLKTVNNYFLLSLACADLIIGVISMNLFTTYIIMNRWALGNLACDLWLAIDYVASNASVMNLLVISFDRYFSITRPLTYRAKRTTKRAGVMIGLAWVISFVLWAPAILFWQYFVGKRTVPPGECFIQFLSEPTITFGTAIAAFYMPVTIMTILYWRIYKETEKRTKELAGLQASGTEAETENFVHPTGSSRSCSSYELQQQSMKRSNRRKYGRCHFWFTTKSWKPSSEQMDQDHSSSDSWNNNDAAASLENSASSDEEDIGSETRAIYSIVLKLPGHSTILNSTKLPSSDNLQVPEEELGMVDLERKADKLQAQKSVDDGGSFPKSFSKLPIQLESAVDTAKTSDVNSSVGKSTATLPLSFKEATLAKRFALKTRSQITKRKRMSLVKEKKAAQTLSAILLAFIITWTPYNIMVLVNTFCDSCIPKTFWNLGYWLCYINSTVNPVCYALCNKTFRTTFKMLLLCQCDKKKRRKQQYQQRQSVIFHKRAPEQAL
UniProt P08173, whole entry: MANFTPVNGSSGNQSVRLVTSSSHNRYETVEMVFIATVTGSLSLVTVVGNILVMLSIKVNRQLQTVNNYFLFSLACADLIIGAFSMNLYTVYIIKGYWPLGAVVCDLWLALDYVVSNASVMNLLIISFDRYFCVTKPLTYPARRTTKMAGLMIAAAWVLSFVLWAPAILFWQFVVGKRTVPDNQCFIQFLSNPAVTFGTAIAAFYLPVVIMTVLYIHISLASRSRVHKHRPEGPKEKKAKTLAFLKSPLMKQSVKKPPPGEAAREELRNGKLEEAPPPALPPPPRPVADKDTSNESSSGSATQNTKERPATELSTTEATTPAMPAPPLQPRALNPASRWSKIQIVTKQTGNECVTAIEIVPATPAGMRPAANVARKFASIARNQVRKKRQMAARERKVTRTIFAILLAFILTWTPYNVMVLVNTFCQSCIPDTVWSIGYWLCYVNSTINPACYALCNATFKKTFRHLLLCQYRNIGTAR

Tests used:
Format in all cases: cell-based
Details in all cases: 100% efficacy is the maximum response obtained with the Carbachol control
[1] = target: M1 muscarinic receptor (Homo sapiens, UniProt P11229); experiment: Functional mobilization of intracellular calcium (FLIPR), M1-CHO cells
[2] = target: M2 muscarinic receptor (Homo sapiens, UniProt P08172); experiment: Functional mobilization of intracellular calcium (FLIPR), M2-CHO cells
[3] = target: M3 muscarinic receptor (Homo sapiens, UniProt P20309); experiment: Functional mobilization of intracellular calcium (FLIPR), M3-CHO cells
[4] = target: M4 muscarinic receptor (Homo sapiens, UniProt P08173); experiment: Functional mobilization of intracellular calcium (FLIPR), M4-CHO cells

Molecule | M1 Efficacy [1] | M2 Efficacy [2] | M3 Efficacy [3] | M4 Efficacy [4]
CCC1CCC(N2CCC(N(C(=O)OC)c3ccc(F)cc3)CC2)CC1 (stereo not shown) | ++ (efficacy was calculated to be from 100% to 25%) | + (efficacy was calculated to be less than 25%) | + (efficacy was calculated to be less than 25%) | + (efficacy was calculated to be less than 25%)
CCC(=O)N1C2CCC1CC(N1CCC(N(C(C)=O)c3ccc(F)cc3)CC1)C2 (stereo not shown) | ++ (efficacy was calculated to be from 100% to 25%) | + (efficacy was calculated to be less than 25%) | + (efficacy was calculated to be less than 25%) | + (efficacy was calculated to be less than 25%)
N-(1-(4-(ethoxyimino)cyclohexyl)piperidin-4-yl)-N-(4-fuorophenyl)acetamide | ++ (efficacy was calculated to be from 100% to 25%) | + (efficacy was calculated to be less than 25%) | + (efficacy was calculated to be less than 25%) | ++ (efficacy was calculated to be from 100% to 25%)
CCCOC(=O)N1C2CCC1CC(N1CCC(N(C(C)=O)c3ccc(F)cc3)CC1)C2 (stereo not shown) | ++ (efficacy was calculated to be from 100% to 25%) | + (efficacy was calculated to be less than 25%) | + (efficacy was calculated to be less than 25%) | + (efficacy was calculated to be less than 25%)
CCOC(=O)N1C2CCC1CC(N1CCC(N(C(C)=O)c3ccccc3OC)CC1)C2 (stereo not shown) | ++ (efficacy was calculated to be from 100% to 25%) | + (efficacy was calculated to be less than 25%) | + (efficacy was calculated to be less than 25%) | ++ (efficacy was calculated to be from 100% to 25%)
CCOC(=O)N1C2CCC1CC(N1CCC(N(C(C)=O)c3ccc(-c4ccccc4)cc3)CC1)C2 (stereo not shown) | ++ (efficacy was calculated to be from 100% to 25%) | + (efficacy was calculated to be less than 25%) | + (efficacy was calculated to be less than 25%) | ++ (efficacy was calculated to be from 100% to 25%)
CC(=O)N(c1ccc(F)cc1)C1CCN(C2CC3CCC(C2)N3C(=O)OCC(F)F)CC1 (stereo not shown) | ++ (efficacy was calculated to be from 100% to 25%) | + (efficacy was calculated to be less than 25%) | + (efficacy was calculated to be less than 25%) | + (efficacy was calculated to be less than 25%)
CCCCOC(=O)N1C2CCC1CC(N1CCC(N(C(C)=O)c3ccc(F)cc3)CC1)C2 (stereo not shown) | ++ (efficacy was calculated to be from 100% to 25%) | + (efficacy was calculated to be less than 25%) | + (efficacy was calculated to be less than 25%) | + (efficacy was calculated to be less than 25%)
CCOC(=O)N1C2CCC1CC(N1CCC(N(C(C)=O)c3ccc(C)c(C)c3)CC1)C2 (stereo not shown) | ++ (efficacy was calculated to be from 100% to 25%) | + (efficacy was calculated to be less than 25%) | ++ (efficacy was calculated to be from 100% to 25%) | ++ (efficacy was calculated to be from 100% to 25%)
CC#CCON=C1CCC(N2CCC(N(C(C)=O)c3ccc(F)cc3)CC2)CC1 (stereo not shown) | ++ (efficacy was calculated to be from 100% to 25%) | + (efficacy was calculated to be less than 25%) | + (efficacy was calculated to be less than 25%) | ++ (efficacy was calculated to be from 100% to 25%)
CCOC(=O)N1C2CCC1CC(N1CCC(N(C(C)=O)c3ccc(C(C)(C)C)cc3)CC1)C2 (stereo not shown) | ++ (efficacy was calculated to be from 100% to 25%) | + (efficacy was calculated to be less than 25%) | + (efficacy was calculated to be less than 25%) | + (efficacy was calculated to be less than 25%)
CC#CCOC(=O)N1C2CCC1CC(N1CCC(N(C(C)=O)c3ccc(F)cc3)CC1)C2 (stereo not shown) | ++ (efficacy was calculated to be from 100% to 25%) | ++ (efficacy was calculated to be from 100% to 25%) | ++ (efficacy was calculated to be from 100% to 25%) | ++ (efficacy was calculated to be from 100% to 25%)
CCOC(=O)N1C2CCC1CC(N1CCC(N(C(C)=O)c3cccc(C)c3)CC1)C2 (stereo not shown) | ++ (efficacy was calculated to be from 100% to 25%) | + (efficacy was calculated to be less than 25%) | + (efficacy was calculated to be less than 25%) | ++ (efficacy was calculated to be from 100% to 25%)
CC(=O)N(c1ccc(F)cc1)C1CCN(C2CC3CCC(C2)N3C(=O)OCC(C)C)CC1 (stereo not shown) | ++ (efficacy was calculated to be from 100% to 25%) | + (efficacy was calculated to be less than 25%) | + (efficacy was calculated to be less than 25%) | + (efficacy was calculated to be less than 25%)
CCOC(=O)N1C2CCC1CC(N1CCC(N(C(C)=O)c3ccc(C)cc3)CC1)C2 (stereo not shown) | ++ (efficacy was calculated to be from 100% to 25%) | + (efficacy was calculated to be less than 25%) | ++ (efficacy was calculated to be from 100% to 25%) | ++ (efficacy was calculated to be from 100% to 25%)
CCOC(=O)N1C2CCC1CC(N1CCC(N(C(C)=O)c3cccc(Cl)c3)CC1)C2 (stereo not shown) | ++ (efficacy was calculated to be from 100% to 25%) | + (efficacy was calculated to be less than 25%) | ++ (efficacy was calculated to be from 100% to 25%) | ++ (efficacy was calculated to be from 100% to 25%)
